The values that follow come from patent US6673937B2, “Syntheses and methods of use of new antimitotic agents” (The University of Pittsburgh, priority 2000, dated 2004).

Amino acid sequences for entries named in this document (tags omitted). Residues count along the entry.
UniProt Q16881, 151-649: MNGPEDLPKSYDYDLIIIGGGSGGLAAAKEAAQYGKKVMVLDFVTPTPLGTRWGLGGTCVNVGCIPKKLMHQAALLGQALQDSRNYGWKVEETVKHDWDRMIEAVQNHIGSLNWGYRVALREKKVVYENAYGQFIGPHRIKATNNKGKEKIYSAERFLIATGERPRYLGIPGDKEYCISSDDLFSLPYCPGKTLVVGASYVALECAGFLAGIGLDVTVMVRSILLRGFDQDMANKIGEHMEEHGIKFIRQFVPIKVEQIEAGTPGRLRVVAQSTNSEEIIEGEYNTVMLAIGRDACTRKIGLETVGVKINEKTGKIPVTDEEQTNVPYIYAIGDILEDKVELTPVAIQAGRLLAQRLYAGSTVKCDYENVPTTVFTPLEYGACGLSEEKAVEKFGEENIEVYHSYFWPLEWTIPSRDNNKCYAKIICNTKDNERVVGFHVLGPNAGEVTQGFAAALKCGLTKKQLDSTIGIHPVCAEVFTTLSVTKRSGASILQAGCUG
UniProt P10599, whole entry: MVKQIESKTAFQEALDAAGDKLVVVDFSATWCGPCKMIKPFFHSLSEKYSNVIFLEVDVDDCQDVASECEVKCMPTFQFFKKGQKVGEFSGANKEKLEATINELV

One experiment concerns the target TrxR (Homo sapiens, UniProt Q16881). The experiment in a line: Thioredoxin reductase (TrxR) DTNB reduction assay. Conditions: read-out: TrxR IC50; calculated from 5 concentrations (0.1 to 50 μM).
A further experiment concerns MCF-7 cells. Conditions: read-out: MCF-7 50% cell growth inhibition; 72 hours.
Experiment [1] deals with mouse embryonic fibroblasts transformed with SV40 large T antigen. Nature of the experiment: Proliferation of SV40 transformed mouse embryonic fibroblasts. The following applies: read-out: concentration required to inhibit growth by 50%; data not shown.
A further experiment has as its target Trx-1/TrxR (Homo sapiens, UniProt P10599+Q16881). Nature of the experiment: Trx-1/TrxR-dependent insulin reducing assay. The following applies: read-out: Trx-1/TrxR IC50; calculated from 5 concentrations (0.1 to 50 μM).
For the next experiment, the system named is MDA-MB-231 cells. Nature of the experiment: Antiproliferative assay, MDA-MB-231 cells. The following applies: 72 hours.

Each structure is given as a SMILES string. A value given as a limit tells only on which side of the number the result lay.

Consider `C=C(C)COc1cccc2c1C(=O)C=CC21Oc2cccc3cccc(c23)O1`, for which the IC50 at TrxR was over 50 µM.

As for `O=C1C=CC2(Oc3cccc4cccc(c34)O2)c2cccc(OCc3ccc(Br)cc3)c21`, the IC50 on TrxR was over 50 µM; with MCF-7 cells, over 10 µM.

Turning to `O=C1C2OC2C2(Oc3cccc4cccc(c34)O2)C23OC12C(O)C=CC3=O` (centres unmarked), the IC50 is 13.5 µM on TrxR; 1.5 µM in the experiment with MCF-7 cells; 3 µM in experiment [1]; 4.5 µM at Trx-1/TrxR; 2 µM with MDA-MB-231 cells (read-out: MDA-MB-231 50% cell growth inhibition). In addition, in the experiment on MDA-MB-231 cells (FIG. 23 Panel B), the “sensitivity of MDA-MB-231 cells, in words” value was “equally sensitive”.

As for `O=C1C=CC2(Oc3cccc4cccc(c34)O2)c2cccc(OCc3ccc(-c4cccc(C(F)(F)F)c4)o3)c21`, the IC50 on TrxR was over 50 µM.

As for `O=C1C=CC2(Oc3cccc4cccc(c34)O2)c2cccc(OCc3ccc(-c4cccc(Cl)c4)o3)c21`, the IC50 on TrxR is over 50 µM; in the experiment with MCF-7 cells it was over 10 µM.

Regarding `O=C1C=CC2(Oc3cccc4cccc(c34)O2)c2cccc(OCc3ccc(-c4ccccc4C(F)(F)F)o3)c21`, the IC50 was over 50 µM on TrxR and 5 µM with MCF-7 cells.

For `C#CCOc1cccc2c1C(=O)C=CC21Oc2cccc3cccc(c23)O1`, the IC50 at TrxR was over 50 µM.

Turning to `O=C1C=CC2(Oc3cccc4cccc(c34)O2)c2cccc(OCc3ccc(Cl)cc3)c21`, the IC50 is over 50 µM on TrxR and over 10 µM with MCF-7 cells.

On to `CC(C)=CCOc1cccc2c1C(=O)C=CC21Oc2cccc3cccc(c23)O1`, for which the IC50 with MCF-7 cells came out at 2 µM.

Regarding `O=C1C=CC2(Oc3cccc4cccc(c34)O2)c2cccc(OCc3ccc(-c4ccccc4Cl)o3)c21`, the IC50 at TrxR was over 50 µM; with MCF-7 cells it was over 10 µM.
